The numbers were not newly measured in PubChem BioAssay AID1811 (Shanghai Institute of Organic Chemistry, 2009), which cites them from elsewhere.

Structures are written as SMILES. Some of the results follow. Active and inactive are the calls of the source. Where no limit is named, active and inactive come without a cut-off here.

For the data set, the system named is acetylcholinesterase. Kind of data set: PubChem AID 1811. Particulars: PDB complex binding affinities from literature.
Take `c1ccc2c(NCCCCCNc3c4c(nc5ccccc35)CCCC4)c3c(nc2c1)CCCC3`: the result was active.

With `COc1ccc2c3c1O[C@H]1C[C@@H](O)C=C[C@@]31CC[N+](CCCCCCCCN1C(=O)c3ccccc3C1=O)=C2`, the compound was classed as active.

For `O=c1ccc2c([nH]1)CCC[C@@H]2NCCCCCCCCCCCCN[C@H]1CCCc2[nH]c(=O)ccc21`, the outcome was active.
